Test results published in US20160303258A1, “COMPOUNDS AND COMPOSITIONS FOR IMAGING GCC-EXPRESSING CELLS” (MILLENNIUM PHARMACEUTICALS, INC., priority 2013, published 2016).
Where two headings read alike, the source gives them in different places.

The chains behind the UniProt entries cited, without tags or fusion partners. Residues count along the entry.
UniProt P25092, 24-1073: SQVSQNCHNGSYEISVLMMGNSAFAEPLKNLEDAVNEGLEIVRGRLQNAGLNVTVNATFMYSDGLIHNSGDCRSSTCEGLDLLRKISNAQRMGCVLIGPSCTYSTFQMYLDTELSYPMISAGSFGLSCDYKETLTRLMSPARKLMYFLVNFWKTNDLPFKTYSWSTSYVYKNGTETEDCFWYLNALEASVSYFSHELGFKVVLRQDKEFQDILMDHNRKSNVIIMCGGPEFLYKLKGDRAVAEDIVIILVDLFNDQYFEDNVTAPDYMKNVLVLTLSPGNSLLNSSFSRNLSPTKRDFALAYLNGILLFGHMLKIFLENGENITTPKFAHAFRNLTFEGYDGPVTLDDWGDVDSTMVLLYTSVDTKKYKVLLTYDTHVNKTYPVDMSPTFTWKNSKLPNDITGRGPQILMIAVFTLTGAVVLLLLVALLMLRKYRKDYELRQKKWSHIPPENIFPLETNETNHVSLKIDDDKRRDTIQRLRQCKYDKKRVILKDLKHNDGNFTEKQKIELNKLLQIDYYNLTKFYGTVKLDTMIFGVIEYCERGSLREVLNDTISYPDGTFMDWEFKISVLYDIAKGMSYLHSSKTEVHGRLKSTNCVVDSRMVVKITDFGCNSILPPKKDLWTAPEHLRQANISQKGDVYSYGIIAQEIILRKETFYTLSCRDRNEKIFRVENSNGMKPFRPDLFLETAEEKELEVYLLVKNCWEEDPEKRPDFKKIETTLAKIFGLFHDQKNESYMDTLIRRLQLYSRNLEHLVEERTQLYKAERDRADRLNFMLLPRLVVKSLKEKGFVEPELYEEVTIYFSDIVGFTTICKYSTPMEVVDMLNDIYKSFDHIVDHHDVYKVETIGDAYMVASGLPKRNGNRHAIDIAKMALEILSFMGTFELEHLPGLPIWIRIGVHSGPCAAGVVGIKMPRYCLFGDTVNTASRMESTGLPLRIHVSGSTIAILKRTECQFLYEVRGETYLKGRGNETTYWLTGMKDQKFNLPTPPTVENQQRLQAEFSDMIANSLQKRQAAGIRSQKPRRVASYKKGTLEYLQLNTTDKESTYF

Experiments:
[1] = Effect of mass dose on tumor uptake, biodistribution in HEK-293 GCC Clone 2 xenograft mice; type: in vivo; conditions: female, CB-17 SCID, mouse, 0.01 ug, 0.01 μg mass, 1 hour postdose
Experimental: An additional in vivo study was conducted using HEK-293 GCC clone 2 human embryonic kidney tumor xenografts in female CB-17 SCID mice to evaluate the effect of increasing the mass dose of [^68Ga]MLN6907 DP on tumor uptake. [68Ga]MLN6907 DP was administered to female CB-17 SCID mice bearing HEK-293 GCC Clone 2 HEK tumor xenografts at a mass of 0.005 to 0.50 μg (FIG. 12).

[2] = target: T1, cell-surface GCC (Homo sapiens, UniProt P25092); assay: In vitro competitive binding assay with HEK-293 GCC clone 2 cells (KD); conditions: read-out: KD Affinity
T1 construct: expressed in transfected cells; host or cells: HEK-293 GCC Clone 2 (GCC-expressing HEK-293 cells)
Experimental: FIG. 13 depicts the results of a competitive binding study showing the KD of MLN6907 for GCC on the surface of HEK-293 GCC clone 2 cells.
(§1) The KD of MLN6907 for cell-surface GCC was calculated using an in vitro competitive binding assay with HEK-293 GCC clone 2 cells (FIG. 13). Antigen surface density of GCC on HEK-293 GCC clone 2 cells was estimated in vitro by Western blotting, and in vivo in the mouse model (FIG. 16). Decreased [68Ga]MLN6907 uptake in the tumor results from GCC receptor competition from added unlabeled peptide. […] The tumor uptake of [^68Ga]MLN6907 differed in tumors with varying levels of GCC expression and phenotype and is reflected in the initial in vivo calculated Bmax values.

[3] = Internalization rate and residualization study; type: cell-based
Experimental: The upper curve depicts the amount of intracellular MLN6907, while the lower curve depicts the amount of surface-bound MLN6907.
Some parameters were known at the outset of the study, and others were determined experimentally. In these experiments, Indium-111 was used as a surrogate for Gallium-68 because the longer half-life of Indium was helpful in conducting some longer-duration assays.
as §1

[4] = Blood pharmacokinetics in mouse model; type: in vivo; conditions: blood half-life, mouse
Experimental: FIG. 15. […] The y axis is the injected dose (% ID) per gram of tissue. In all three systems tested, blood clearance of the compound is rapid.
as §1

[5] = target: T2, GCC on HEK-293 GCC clone 2 cells (Homo sapiens, UniProt P25092); assay: Antigen surface density (Bmax) from in vivo competitive binding in the mouse model
T2 construct: expressed in transfected cells; host or cells: HEK-293 GCC Clone 2 (GCC-expressing HEK-293 cells)
From the text: In contrast, [^68Ga]MLN6907 accumulates in a tumor at high levels. […] Levels of [^68Ga]MLN6907 in the kidney are high even in the presence of unlabeled competitor, indicating excreted through the kidneys, and that this excretion is not dependent on GCC receptors.
Bmax is the antigen surface density as determined by a competitive binding study using [^68Ga]MLN6907. The H-score is the staining intensity when GCC is detected by immunohistochemistry. In general, the Bmax and H-scores correlate.
as §1

[6] = Effective radiation dose estimate using OLINDA/EXM software; set-up: species or system human
From the text: Using OLINDA/EXM software, the effective dose was estimated to be 0.0131 mSv/MBq (1 mCi=37 MBq) in adult human male and 0.0139 mSv/Mbq in adult human female.

[7] = test system: erythrocyte; assay: In vitro hemolysis assay; type: cell-based; conditions: decayed nonradioactive DP, 3.5 μg/mL
Experimental: Local tolerance of decayed nonradioactive [^68Ga]MLN6907 DP and MLN6907 DSP was evaluated using an in vitro hemolysis assay and as part of the GLP-compliant 2-week, repeat-dose toxicology studies, respectively.

[8] = Ex vivo biodistribution of 213Bi-labeled peptide in naive and tumor bearing mice; conditions: over 3 h
Experimental: A biodistribution study was first conducted in 24 female mice to observe the ex vivo biodistribution of ^213Bi-DOTA-Ahx-STp(5-18). All tumor bearing (GCC) mice were randomized into n=4×3 groups and all naïve mice were randomized into n=4×3 groups. Due to issues with the gamma counter device, some data was lost, reducing the study to 20 animals total (n=12 tumor bearing; n=8 naïve). All mice were administered ^213Bi-DOTA-Ahx-STp(5-18) intravenously (IV) and animals were sacrificed at the following time points post injection: 15 minutes, 1 and 3 hours. The following tissues were resected for gamma counting to determine the tracer-derived radioactivity per unit tissue: tumor, blood, heart, kidney, liver, lungs, spleen, pancreas, bladder, small intestine, large intestine, stomach, bone, and muscle. […]
All resected tissues from the biodistribution study were analyzed by EG&G Wallac 1480 Wizard 3″ gamma counter to determine the ^213Bi-DOTA-Ahx-STp(5-18) derived radioactivity. The following tissues were analyzed: tumor, blood, heart, kidneys, liver, lungs, spleen, pancreas, bladder, small intestine, large intestine, stomach, bone, and muscle. Data were recorded in units of counts per minute (CPM) and later converted to units of μCi for presentation in activity concentration units of percent injected dose per gram (% ID/g).

[9] = test system: GCC-293 tumor; assay: In vivo tolerability and tumor growth study in tumor-bearing GCC-293 mice
Experimental: Following completion of the biodistribution study, an in vivo tolerability study was conducted in female tumor-bearing GCC-293 mice. Initially, 60 tumor bearing mice were randomized based on tumor size into one of four groups. Each group (n=8 animals per group) was characterized by its drug intervention and/or dose. Animals assigned to group 1 were administered 3 doses of 140 μCi ^213Bi-DOTA-Ahx-STp(5-18), intravenously (IV) every other day (Q2D) on days 0, 2 and 4. Animals in group 2 were administered 3 doses of 50 μCi ^213Bi-DOTA-Ahx-STp(5-18) IV Q2D on days 0, 2, and 4. Animals in group 3 were administered vehicle (0.1 M HCl/0.1 NaI, Tris, ascorbic acid, ultra-pure water, ethanol, and DTPA in exact proportion to labeled drug brought up in PBS; 100 μL) IV Q2D on days 0, 2, and 4 and served as negative controls. Lastly, animals in group 4 were administered 3 doses of 7.5 mg/kg of a GCC-targeting antibody drug conjugate once weekly for three weeks for a total of 3 doses on days 0, 7 and 14 and served as positive controls. Following dosing, tumor caliper measurements and body weights were recorded three times a week for 21 days or until animals were sacrificed (animals were sacrificed if tumor size exceeded 2000 mm^3 or body weight loss exceeded 20%). At the time of sacrifice, select tissues were collected from each animal and fixed in formalin for potential future IHC analysis.
Tumor caliper measurements were recorded two times a week to estimate tumor volumetric changes post dosing for animals in the tolerability study. Tumor caliper measurements were recorded in units of mm and later converted to a unit of volume, mm^3, and fold change was calculated using the equations below: […]
For experiment 2, any animal whose tumor grew greater than 2000 mm^3 or body weight decreased greater than 20% were euthanized in extremis.

[10] = Dosimetry: imparted dose of 213Bi-labeled peptide; type: in vivo, mice; conditions: for imparted dose: 3 × 140 uCi doses on days 0, 2, and 4
[11] = Low Dose (3 x 50 μCi) vs Negative Control, Day 22

Compound: CC(C)C[C@@H]1NC(=O)[C@H](CCC(=O)O)NC(=O)[C@@H]2CSSC[C@@H]3NC(=O)[C@H](C)NC(=O)[C@@H]4CCCN4C(=O)[C@H](CC(N)=O)NC(=O)[C@H](CSSC[C@H](NC(=O)CCCCCNC(=S)Nc4ccc(C[C@H]5CN(CC(=O)O)CCN(CC(=O)O)CCN(CC(=O)O)CCN5CC(=O)O)cc4)C(=O)N2)NC(=O)[C@H](CSSC[C@@H](C(=O)N[C@@H](Cc2ccc(O)cc2)C(=O)O)NC(=O)CNC(=O)[C@H](C)NC3=O)NC1=O [[^68Ga]MLN6907 DP, metal not drawn]
- tissue uptake at 1 h ([1]; blood, read-out: uptake in blood): 0.98 %ID/g
- tissue uptake at 1 h ([1]; kidney, read-out: uptake in kidney): 7.68 %ID/g
- tissue uptake at 1 h ([1]; liver, read-out: uptake in liver): 0.7 %ID/g
- tissue uptake at 1 h ([1]; tumor (maximal uptake), read-out: uptake in tumor): 7.43 %ID/g
- tissue to tissue ratio at 1 h ([1]; tumor / blood, read-out: tumor-to-tissue ratio, blood): 7.7
- tissue to tissue ratio at 1 h ([1]; tumor / kidney, read-out: tumor-to-tissue ratio, kidney): 0.98
- tissue to tissue ratio at 1 h ([1]; tumor / liver, read-out: tumor-to-tissue ratio, liver): 10.8
- Kd [2]: 3.2 nM
- T1/2, kresid Residualization rate ([3]; Indium-111 used as surrogate in longer assays): >24 h
- T1/2, ke Half-life of internalization ([3]; [111In]MLN6907 as surrogate (FIG. 14)): 0.933 h
- PK In vivo blood PK [4]: 26 min
- Bmax Antigen surface density (HEK-293 GCC Clone 2) [5]: ~14,000 (in vivo)
- effective dose ([6]; adult human female): 0.0139 mSv/Mbq
- effective dose ([6]; adult human male): 0.0131 mSv/MBq
- erythrocyte hemolysis [7]: no erythrocyte hemolysis

Compound: CC(C)C[C@@H]1NC(=O)[C@H](CCC(=O)O)NC(=O)[C@@H]2CSSC[C@@H]3NC(=O)[C@H](C)NC(=O)[C@@H]4CCCN4C(=O)[C@H](CC(N)=O)NC(=O)[C@H](CSSC[C@H](NC(=O)CCCCCNC(=S)Nc4ccc(C[C@H]5CN(CC(=O)O)CCN(CC(=O)O)CCN(CC(=O)O)CCN5CC(=O)O)cc4)C(=O)N2)NC(=O)[C@H](CSSC[C@@H](C(=O)N[C@@H](Cc2ccc(O)cc2)C(=O)O)NC(=O)CNC(=O)[C@H](C)NC3=O)NC1=O [^213Bi-DOTA-Ahx-STp(5-18), metal not drawn]
- tissue uptake [8]: Highest uptake was seen in tumor, kidney, and bladder
- T/C, tumor growth fold change from baseline ([9]; High Dose (3 x 140 μCi) vs Negative Control, day 11): 0.24 (day 11)
- tolerability ([9]; High Dose, 3 doses of 140 μCi IV Q2D days 0, 2, 4): not tolerated well
- body weight loss requiring euthanasia of all mice ([9]; High Dose, 3 doses of 140 μCi, over a 14 day period): > 20%
- T/C, tumor growth [9, 11]: 1.04 (Day 22)
- T/C, tumor growth fold change from baseline [9, 11]: 0.52 (Day 22)
- T/C, tumor growth fold change from baseline ([9]; Low Dose (3 x 50 μCi) vs Negative Control, day 11): 0.95 (day 11)
- tolerability ([9]; Low Dose, 3 doses of 50 μCi IV Q2D days 0, 2, 4): improved tolerability
- probability of survival compared with the negative control ([9]; Low dose (3 x 50 μCi), Kaplan Meier): higher probability of survival
- AUC ([10]; Blood): 0.162 h
- imparted dose per activity ([10]; Blood): 35.8 mGy/MBq
- imparted dose ([10]; Blood): 556 mGy
- AUC ([10]; Kidney): 0.042 h
- imparted dose per activity ([10]; Kidney): 77.9 mGy/MBq
- imparted dose ([10]; Kidney): 1220 mGy
- AUC ([10]; Tumor): 0.068 h
- imparted dose per activity ([10]; Tumor): 20.7 mGy/MBq
- imparted dose ([10]; Tumor): 322 mGy
